This is an account of results in patent US9410137B2, “Compositions and methods for modulating hemostasis” (The Children's Hospital of Philadelphia, priority 2005, dated 2016).

Read-outs that look alike come from different tables or passages of the source.

A word on the Km: it is the substrate concentration at which the rate is half of its maximum. What is called Kd is a measure of binding affinity in units of concentration.

A short description of series [1]: FXa chromogenic activity of rFX variants after activation with RVV-X. The class given is biochemical. Particulars: for FXa Activity: activation of FX with RVV-X, compared to FXa standard curve; for % wt (FXa activity): activation with RVV-X, adjusted for antigen levels. The procedure:
(§1) The FX mutants were generated using the Quick-change site-directed mutagenesis kit (Stratagene) and the entire FX cDNA was sequenced to verify the identity of the product. The various plasmids were transiently transfected into HEK 293 cells using Lipofectamine-2000. 48 hr post-transfection, media was collected and FX antigen levels were determine using a FX-specific ELISA and FXa activity was assessed by chromogenic assay prior to activation by RVV-X or by tissue factor-FVIIa.

Series [2] in a line: FXa chromogenic activity of rFX variants after activation with TF-FVIIa. The class given is biochemical. Particulars: for FXa Activity: activation of FX with TF-FVIIa, compared to FXa standard curve; for % wt (FXa activity): activation with TF-FVIIa, adjusted for antigen levels. The procedure:
as §1

The next series has as its target prothrombin (Homo sapiens, UniProt P00734). Kind of series: Kinetic constants for prothrombin cleavage by prothrombinase. It is filed as biochemical. Particulars: for Km: read-out: Km ± SD.
In another series the target is T1, FVa (Homo sapiens, UniProt P12259).
T1 sequence (P12259 29-737 limits assumed): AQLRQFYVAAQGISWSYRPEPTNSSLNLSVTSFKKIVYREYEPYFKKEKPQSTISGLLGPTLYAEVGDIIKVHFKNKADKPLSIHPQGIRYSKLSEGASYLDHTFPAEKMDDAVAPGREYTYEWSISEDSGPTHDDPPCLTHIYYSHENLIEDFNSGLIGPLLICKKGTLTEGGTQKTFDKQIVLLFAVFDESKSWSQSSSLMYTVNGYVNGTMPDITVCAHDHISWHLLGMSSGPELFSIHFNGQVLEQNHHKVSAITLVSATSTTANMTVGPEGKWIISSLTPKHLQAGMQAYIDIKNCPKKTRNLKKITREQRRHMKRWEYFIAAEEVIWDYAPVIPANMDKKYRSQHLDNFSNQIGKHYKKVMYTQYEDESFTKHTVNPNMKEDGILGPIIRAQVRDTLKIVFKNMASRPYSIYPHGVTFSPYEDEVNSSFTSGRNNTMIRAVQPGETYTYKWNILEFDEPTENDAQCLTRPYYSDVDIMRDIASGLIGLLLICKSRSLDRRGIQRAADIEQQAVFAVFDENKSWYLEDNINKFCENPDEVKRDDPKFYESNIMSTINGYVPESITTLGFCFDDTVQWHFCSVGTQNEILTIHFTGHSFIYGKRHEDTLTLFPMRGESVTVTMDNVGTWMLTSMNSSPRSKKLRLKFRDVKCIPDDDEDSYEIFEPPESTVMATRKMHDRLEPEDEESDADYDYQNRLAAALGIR
T1 sequence (P12259 1574-2224 limits assumed): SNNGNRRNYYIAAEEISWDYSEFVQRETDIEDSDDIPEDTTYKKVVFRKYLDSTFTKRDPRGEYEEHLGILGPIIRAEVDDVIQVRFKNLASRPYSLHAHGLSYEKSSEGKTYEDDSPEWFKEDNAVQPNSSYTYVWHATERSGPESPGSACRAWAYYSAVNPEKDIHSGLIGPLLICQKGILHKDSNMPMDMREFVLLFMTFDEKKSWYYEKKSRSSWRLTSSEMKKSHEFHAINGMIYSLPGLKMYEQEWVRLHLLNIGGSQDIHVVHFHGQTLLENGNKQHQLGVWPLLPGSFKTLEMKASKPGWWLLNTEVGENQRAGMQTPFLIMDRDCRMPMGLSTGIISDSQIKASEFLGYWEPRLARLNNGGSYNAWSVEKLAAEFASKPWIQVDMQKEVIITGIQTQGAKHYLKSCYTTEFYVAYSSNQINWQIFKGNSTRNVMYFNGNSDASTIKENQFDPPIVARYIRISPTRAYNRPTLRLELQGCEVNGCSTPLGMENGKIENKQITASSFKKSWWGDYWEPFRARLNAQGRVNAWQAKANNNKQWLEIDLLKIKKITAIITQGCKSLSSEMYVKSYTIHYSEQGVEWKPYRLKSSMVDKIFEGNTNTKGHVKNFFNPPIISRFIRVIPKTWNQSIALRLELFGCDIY
As to the kind of experiment: Equilibrium binding for prothrombinase assembly (displacement of fluorescent inactive wtFXa from FVa-membranes). The note with it: for Kd: FVa, synthetic phospholipid vesicles, Ca2+, read-out: Kd ± SD; for affinity for FVa: FVa-membranes, competition with fluorescent inactive wtFXa.

Series [3] can be described thus: Kinetic constants for chromogenic substrate cleavage (free factor Xa or prothrombinase). It is filed as biochemical. The note with it: for Km: read-out: Km ± SD. The source says: (§2) Enzyme concentrations will be determined by active-site titration with ρ-nitrophenyl ρ-guanidinobenzoate (IIa) or fluorescein mono-ρ-guanidinobenzoate (FXa) (26, 27). FXa chromogenic substrate activity, in the presence or absence of various inhibitors, will be measured from initial rates of hydrolysis of Spectrozyme FXa, S-2222, or S-2765 as previously described (14). Kinetic parameters will be determined by least-squares fitting of the initial rate data to appropriate equations.

A short description of series [4]: Inhibition of FXa and prothrombinase by Pefabloc tPa/Xa. It is filed as biochemical. Particulars: for Ki: read-out: Ki ± SD Pefabloc tPa/Xa.
Text: as §2

Series [5] can be described thus: Inhibition of FXa and prothrombinase by para-amino benzamidine. It is filed as biochemical. The note with it: for Ki: read-out: Ki ± SD Para-amino benzamidine.
Text: as §2

A further series has as its target Antithrombin III (Homo sapiens, UniProt P01008). Kind of series: Inhibition of FXa and prothrombinase by Antithrombin III. The class given is biochemical.
Text: as §2

In the next series the test system is hemophilia B plasma. Kind of series: aPTT clotting time of hemophilia B plasma spiked with FXa. The class given is biochemical. Particulars: 0.1 nM in hemophilia B plasma. The method, then: Based on the observation that the zymogen-like FXa derivatives have poor reactivity with active-site directed probes and inhibitors in the absence of FVa, but apparently near normal activity when the variants are assembled in prothrombinase, we next evaluated the activity of FXaI16L (FXaI235L) in a plasma environment. Hemophilic A (data not shown) or B plasma was spiked with wild-type FXa to correct the clotting time (aPTT) of these plasmas; 0.1 nM wtFXa gave a clotting time of ˜32 sec. […] Next we monitored the half-life of wild-type FXa and FXaI16L (FXaI235L) in hemophilia B plasma. The proteins were added to HB plasma and at different time points, an aliquot of the mixture was withdrawn and assayed in an aPTT-based assay. […] Similar results were found with hemophilia A plasma.

Where [6] appears, read: Prothrombinase, 5.0 nM FXa, 30 nM factor Va, 50 μM PCPS.
Where [7] appears, read: free Factor Xa, 2.0 nM wild-type or 6.0 nM mutant.

As for “Asp194→Asn: rFX variant, Asp194 (position 418 in SEQ ID NO: 1) replaced by Asn”, in series [1], the “FXa Activity” value came out at 0.03 nM and the “% wt (FXa activity)” value came out at 0.79%. For the same substance, in series [2], the “FXa Activity” value is 0.000 nM and the “% wt (FXa activity)” value was determined as 0.00%.
The corresponding values for “Asp194→Qu: rFX variant, Asp194 (position 418 in SEQ ID NO: 1) replaced, probably by Glu” are 0.02 nM, 0.27%, 0.000 nM and 0.00%.
Taken in the same sequence, the figures for “Ile16→Asp: rFX variant, Ile16 (position 235 in SEQ ID NO: 1) replaced by Asp” were 0.01 nM, 0.22%, 0.000 nM and 0.00%.
The corresponding values for “Ile16→Phe: rFX variant, Ile16 (position 235 in SEQ ID NO: 1) replaced by Phe” are 0.01 nM, 0.08%, 0.004 nM and 0.02%.
As to “Val17→Gly: rFX variant, Val17 (position 236 in SEQ ID NO: 1) replaced by Gly”, in [1], the “FXa Activity” value stood at 0.02 nM and the “% wt (FXa activity)” value is reported as 0.21%. Also, in series [2], the “FXa Activity” value is given as 0.036 nM and the “% wt (FXa activity)” value stood at 0.22%.
The corresponding values for “Val17→Leu: rFX variant, Val17 (position 236 in SEQ ID NO: 1) replaced by Leu” are 1.22 nM, 21.33%, 3.003 nM and 30.48%.
Turning to “pdFXa: plasma-derived wild-type FXa [reference compound]”, in the series with prothrombin, the “Vmax/Et ± SD” value amounted to 2424 ± 54 nM IIa/min/nM E, the “Vmax/Et · Km” value came to 96 µM⁻¹ s⁻¹ and the Michaelis constant (Km) stood at 420 ± 20 nM.
Consider “rFXa^S195A: inactive FXa mutant missing the Ser of the catalytic triad, high affinity for FVa; control competitor [reference compound]”, for which, in the series with FVa, the Kd is 1.34 ± 0.17 nM and the “affinity for FVa” value is listed as “high affinity for FVa”.
With “rFXa^V17A: factor X/Xa variant, Val17 (position 236 in SEQ ID NO: 1) replaced by Ala”, in [1], the “FXa Activity” value worked out at 0.34 nM and the “% wt (FXa activity)” value came out at 3.02%. Also, in [2], the “FXa Activity” value is given as 1.029 nM and the “% wt (FXa activity)” value was found to be 5.27%. Moreover, in series [3] (Prothrombinase), the “fold change of Km versus rwtFXa” value was determined as 3X and the “fold change of kcat versus rwtFXa” value came to 3X. Moreover, in [3] (setting [6]), the “kcat ± SD” value came out at 68.2 ± 9.7 s⁻¹ and the Michaelis constant (Km) was 362 ± 42 µM. Besides, the “Km for peptidyl substrates” value in series [3] (assembled into prothrombinase) is “almost completely restored”. The kcat reduced in series [3] (assembled into prothrombinase, compared to wild-type FXa) is 3 fold. Also, the “rate of catalysis (kcat) reduced” value in [3] (free FXa, compared to wild-type FXa (plasma-derived and recombinant)) came to 3 fold. In series [3] (free Factor Xa), the “fold change of Km versus rwtFXa” value is 15X, the “fold change of kcat versus rwtFXa” value is 3X and the “kcat ± SD” value amounted to 71.6 ± 13.5 s⁻¹. Moreover, in series [3] (setting [7]), the Michaelis-Menten constant (Km) turned out to be 1380 ± 332 µM. Also, in series [4] (Prothrombinase), the “fold change of Ki Pefabloc tPa/Xa versus rwtFXa” value is on record as 5X and the Ki was determined as 295 ± 13 nM. In [4] (free Factor Xa), the “fold change of Ki Pefabloc tPa/Xa versus rwtFXa” value is 25X and the Ki came out at 1700 ± 72 nM. In series [5] (Prothrombinase), the “fold change of Ki para-amino benzamidine versus rwtFXa” value was found to be 3X and the Ki is 191 ± 6.4 µM. In series [5] (free Factor Xa), the “fold change of Ki para-amino benzamidine versus rwtFXa” value was 11X and the Ki is 996 ± 37 µM. Also, in the series with Antithrombin III (Prothrombinase), the “fold change of k2 Antithrombin III versus rwtFXa” value worked out at 4X and the “k2 ± SD Antithrombin III” value was found to be 0.05 ± 0.001 M^−1 s^−1 × 10^3. In addition, in the series with Antithrombin III (free Factor Xa), the “fold change of k2 Antithrombin III versus rwtFXa” value came out at 19X and the “k2 ± SD Antithrombin III” value amounted to 0.09 ± 0.003 M^−1 s^−1 × 10^3. Besides, in the series with prothrombin, the “Vmax/Et ± SD” value was found to be 887 ± 26 nM IIa/min/nM E, the “Vmax/Et · Km” value came out at 31 µM⁻¹ s⁻¹ and the Km came out at 470 ± 30 nM. In addition, in the series with FVa, the Kd is 7.25 ± 0.65 nM and the “affinity for FVa” value is recorded as “significantly reduced compared to FXaS195A”.
“rwtFXa: recombinant wild-type factor X (zymogen) / factor Xa after activation [reference compound]”: the “FXa Activity” value in series [1] worked out at 10.95 nM; in [2] it was 18.905 nM. In addition, the “% wt (FXa activity)” value in series [1] and in series [2] was 100.00% in each case. The “kcat ± SD” value is 141 ± 3.7 s⁻¹ in series [3] (setting [6]) and 215 ± 13.5 s⁻¹ in series [3] (free Factor Xa). Besides, the values for the Km in series [3] (setting [6]) and in series [3] (setting [7]) were 130 ± 11 µM and 88.8 ± 11.4 µM, respectively. Besides, the Ki in series [4] (Prothrombinase) stood at 50 ± 2 nM; in [4] (free Factor Xa), 70 ± 2 nM; in series [5] (Prothrombinase) it was 48.6 ± 0.6 µM; in series [5] (free Factor Xa), 78.1 ± 1.5 µM. In addition, the “k2 ± SD Antithrombin III” value worked out at 0.28 ± 0.01 M^−1 s^−1 × 10^3 with Antithrombin III (Prothrombinase) and 1.37 ± 0.02 M^−1 s^−1 × 10^3 with Antithrombin III (free Factor Xa). In the series with hemophilia B plasma, the “clotting time (aPTT)” value was roughly 32 s.
